{"source": "patent US8962819B2", "about": "“Anti-C5 alpha antibodies” (Adienne S.A., priority 2002, dated 2015)", "tested_on": "binding of the TS-A12/22 antibody to C5", "test": "Competitive ELISA on solid-phase C5 after pre-incubation of TS-A12/22 with peptide", "parameters": "species or system human", "details": "scFv 1 μg/ml", "method": "Mixtures of scFv TSA-12/22 (1 μg/ml) containing 200, 400 and 800 ng of P5A-18 peptide, with sequence KDMQLGRLHMKTLLPVSK [SEQ ID NO:15], comprising the C5 convertase cleavage site, or 800 ng of unrelated peptide CS5, derived from fibronectin ([…] SEQ ID No. 16 of sequence listing) or 3.5 μg of C5a fragment or saline solution (control) were incubated as described in example 8. Binding of the antibody, pre-incubated in different conditions, was assessed by immuno-enzymatic assay using C5 on solid phase. Inhibition by the P5A-18 peptide of the binding between scFv of the invention and C5 is dose-dependent, ranging between 45% to 90% for peptide concentrations of 200 and 800 ng, respectively. These values correspond to a Ki of 1 μM for the P5A-18 peptide. NO inhibition is observed using C5A or the unrelated peptide.\nIn order to verify this hypothesis, a peptide of 18 amino acids was synthesised, with sequence: KDMQLGR↓LHMKTLLPVSK (P5A-18 also termed C5cs comprising SEQ ID NO:15). This peptide corresponds to region 727-744 of the mature protein and comprises the cleavage site of C5 convertase (indicated by the arrow) between […] according to SwissProt numbering for human C5 (SEQ ID P01031). The peptide was used in a competitive ELISA assay on the C5 protein on solid phase. […]"}
{"sequence": "KDMQLGRLHMKTLLPVSK [P5A-18, 18 amino acid peptide, region 727-744 of human C5, comprising the C5 convertase cleavage site]", "values": [{"measurement": "inhibition of binding of TS-A12/22 to C5", "setting": "200 ng peptide (/200 μl)", "value": 45, "unit": "%"}, {"measurement": "inhibition of binding of TS-A12/22 to C5", "setting": "800 ng peptide (/200 μl)", "value": 90, "unit": "%"}]}
